Assay results as given in patent US20200240995A1, “KDAC VARIANTS AND USES THEREOF” (Max-Planck-Gesellschaft Zur Forderung Der Wissenschaften …, priority 2017, published 2020).

Chains of the proteins cited; added tags and fusions are not shown. Residues count along the entry.
UniProt Q8IXJ6, 56-356 limits assumed: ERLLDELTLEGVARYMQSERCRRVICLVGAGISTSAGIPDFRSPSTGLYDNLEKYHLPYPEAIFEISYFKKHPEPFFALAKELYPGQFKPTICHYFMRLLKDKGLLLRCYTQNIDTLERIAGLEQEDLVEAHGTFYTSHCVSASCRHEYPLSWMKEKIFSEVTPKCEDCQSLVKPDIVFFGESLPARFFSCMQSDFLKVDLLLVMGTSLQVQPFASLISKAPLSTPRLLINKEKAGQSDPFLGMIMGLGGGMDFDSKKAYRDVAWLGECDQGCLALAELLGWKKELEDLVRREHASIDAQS
UniProt P08659, whole entry N50D/N119G: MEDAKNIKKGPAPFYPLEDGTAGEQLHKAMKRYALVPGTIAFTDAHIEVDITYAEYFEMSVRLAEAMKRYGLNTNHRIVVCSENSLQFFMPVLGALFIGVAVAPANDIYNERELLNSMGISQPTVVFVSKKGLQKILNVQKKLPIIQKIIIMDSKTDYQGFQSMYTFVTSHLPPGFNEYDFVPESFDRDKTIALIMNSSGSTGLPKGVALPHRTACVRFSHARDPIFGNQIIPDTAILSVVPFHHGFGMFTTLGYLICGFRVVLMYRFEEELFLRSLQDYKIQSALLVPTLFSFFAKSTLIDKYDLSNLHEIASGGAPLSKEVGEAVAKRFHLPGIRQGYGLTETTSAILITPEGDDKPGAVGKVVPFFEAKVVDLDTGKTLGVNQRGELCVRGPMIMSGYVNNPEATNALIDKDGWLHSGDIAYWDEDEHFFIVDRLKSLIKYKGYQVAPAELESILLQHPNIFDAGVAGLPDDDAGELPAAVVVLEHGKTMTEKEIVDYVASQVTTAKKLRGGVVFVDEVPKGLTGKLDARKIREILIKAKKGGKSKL

Columns and labels:
[1] = target: SirT2 (Homo sapiens, UniProt Q8IXJ6); assay: FLuc K529ac-based KDAC assay, inhibition or activation of SirT2 deacetylation; details: read-out: IC50 against SirT2, n=2
[2] = target: Firefly luciferase (Photinus pyralis, UniProt P08659, N119G/N50D); assay: Direct inhibition of Firefly luciferase (counter-test of FLuc K529ac screen)

IC50 [1]	SMILES	Direct inhibition of FLuc [2]	IC50 ([2]; read-out: Firefly luciferase inhibition IC50)
17 µM	Oc1cc(O)cc(/C=C/c2ccccc2)c1		
15 µM	O=C(Nc1ccc(-c2cn3c(C(=O)N4CCOCC4)csc3n2)cc1)c1ccccc1		
> 30 µM	COc1cc(O)cc(/C=C/c2ccccc2)c1		
11 µM	CN(C)C(=O)c1csc2nc(-c3ccc(NC(=O)c4cccs4)cc3)cn12		
	O=C(NCCCN1CCCC1=O)c1cccc2c3c([nH]c12)CCC3	direct inhibition of FLuc	3000 nM
